Measured affinities in a library of Ab-14 light chain variants

Values reported by Engelhart et al. 2022, doi:10.1038/s41597-022-01779-4 (FLAb copy).

Target: peptide PDVDLGDISGINAS, taken from heptad repeat 2 (HR2) of SARS-CoV-2 spike.

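In library AAYL50, one, two or three CDR residues were substituted; doubles and triples were drawn at random. AlphaSeq pools MATa yeast showing the antibodies with MATalpha yeast showing the peptide. Mating (16 h, 30 °C) was followed by selection of diploids and sequencing of their barcodes. Read counts were normalised to the haploid input and turned into Kd by a linear fit to BCL2-family pairs of known affinity, for each replicate. Mating was done three times.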

Parent scFv Ab-14: VH joined to VL by the linker GGGGSGGGGSGGGGS. Changes lie in the light chain CDRs alone.
VH: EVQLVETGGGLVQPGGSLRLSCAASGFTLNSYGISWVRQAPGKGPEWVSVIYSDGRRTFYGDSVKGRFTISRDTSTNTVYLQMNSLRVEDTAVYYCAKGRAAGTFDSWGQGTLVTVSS
VL: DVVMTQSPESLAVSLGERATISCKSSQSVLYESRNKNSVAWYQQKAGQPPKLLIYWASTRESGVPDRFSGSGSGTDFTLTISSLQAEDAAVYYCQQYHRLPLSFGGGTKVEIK

The parent's light chain CDRs are KSSQSVLYESRNKNSVA, WASTRES, QQYHRLPLS; each variant's own CDRs replace them letter for letter.
The read-out is the apparent dissociation constant on a log10 scale (nM): the lower, the stronger.
A mean of the replicates is given; it leaves out those without a signal.
Where no diploid with the target was found in that replicate, the entry reads "ND": below detection, most likely a poor binder, though not proof of it.
Background: pairings of library AAYL50 with three empty control strains gave a value in 18% of cases (median 4.19, 5th percentile 2.99). Values in that range, when seen in few replicates, are hard to tell from nonspecific mating. Also given: how often the same scFv was detected with the empty control strains, with their mean in brackets.
Parent in this assay: reference entry 0.65, copy in this library 1.68.

| CDR-L1 | CDR-L2 | CDR-L3 | log10 Kd, replicates | log10 Kd (nM), mean | signal with controls |
|---|---|---|---|---|---|
| KSSQSVAYESRNKSSVA | WAMTRES | QQYHRLPLS | ND / 3.70 / 4.06 | 3.88 | 4 of 9 (4.40) |
| KSSQSVLYESRNKNIVA | WASTRES | QQYHRLPLS | ND / ND / ND | ND | 1 of 9 (4.29) |
| KSSQSVLYESCNKNEVA | WASTRES | QTYHRLPLS | ND / ND / ND | ND | 0 of 9 |
| KSSQYVLYESRNKNSVA | WISTREC | QQYHRLPLS | ND / ND / ND | ND | 0 of 9 |
| KSSRSCLYESRNKNSVA | WASTRES | QQYHRLPLS | 2.14 / 1.90 / 2.32 | 2.12 | 1 of 9 (4.58) |
| KSSQIVLYESRNKNSVA | WASTRES | QQYHRLMLW | ND / ND / ND | ND | 2 of 9 (3.17) |
| KSSQSVLYESRNKNSVA | LASTRES | QQRHALPLS | ND / ND / ND | ND | 3 of 9 (4.22) |
| FKSQSVLYESRNKNSVV | WASTRES | QQYHRLPLS | ND / ND / ND | ND | 0 of 9 |
| KSSQSDLYESRNKNSVA | WAETRES | QQYIRLPLS | 3.50 / 2.93 / 4.22 | 3.55 | 4 of 9 (3.91) |
| KSSQSVLYESRNKNSVA | WASTMES | QQYHRLPGL | 4.05 / ND / ND | 4.05 | 0 of 9 |
| KSSQSVLYESLNKNSVE | WCSTRES | QQYHRLPLS | ND / ND / ND | ND | 0 of 9 |
| KSSQSVLYESRNLNSVA | WASTRES | QQYHRRVLS | ND / ND / 5.13 | 5.13 | 3 of 9 (3.66) |
| KSSQSVLYESRNKNSVL | WASTRDS | QQVHRLPLS | 3.97 / 3.61 / 4.14 | 3.91 | 2 of 9 (3.61) |
| KSSQSVLYESRNKNSVK | WASTRVS | QQYHRMPLS | ND / ND / ND | ND | 0 of 9 |
| KSSQSVLYDSRNKNSVA | WDSTQES | QQYHRLPLS | ND / 3.63 / ND | 3.63 | 2 of 9 (3.48) |
| KSTQSVLYESRNKNSCA | WASTEES | QQYHRLPLS | ND / ND / ND | ND | 0 of 9 |
| KSSQSVCYESRNKNSCA | WASTRES | QQYHRLPLN | 2.56 / ND / ND | 2.56 | 2 of 9 (3.75) |
| KSSQSVFYESRNKNSVA | WASTRES | QQYHRLSLS | ND / ND / ND | ND | 1 of 9 (3.75) |
| KSSQSVLYESRNKWSVY | WASTDES | QQYHRLPLS | ND / ND / ND | ND | 6 of 9 (4.24) |
| KSSQSVLYESRNSNSVA | WASTREA | QQYHKLPLS | 1.56 / 1.46 / 1.73 | 1.58 | 1 of 9 (3.12) |
| KSSQSKLYESRNKNSVA | WASTREW | QQYHNLPLS | 1.97 / 1.98 / 2.04 | 1.99 | 0 of 9 |
| KISQSVLMESRNKNSVA | WASTRHS | QQYHRLPLS | 0.05 / 0.32 / 0.16 | 0.18 | 3 of 9 (5.02) |
| KSVQSVLPESANKNSVA | WASTRES | QQYHRLPLS | 0.78 / 0.90 / 0.78 | 0.82 | 2 of 9 (5.28) |
| KSSHSVLYESRRKNSVA | WASTRES | QQYHRWPLS | 2.78 / 2.53 / 2.62 | 2.64 | 2 of 9 (3.86) |
| KSSQSPHYEKRNKNSVA | WASTRES | QQYHRLPLS | 2.09 / 1.86 / 2.17 | 2.04 | 2 of 9 (4.09) |
| KGSQSVLYESRNKNSVA | WASTREV | QQYHRLPLS | 1.71 / 1.78 / 2.01 | 1.84 | 4 of 9 (3.54) |
| KSSQSVLYEQRNKNCVA | WASTRKS | QQYHRLPLS | ND / ND / ND | ND | 3 of 9 (4.77) |
| KSSQSVLYESRGKNSVA | WYSTRES | PQYHRLPLS | ND / ND / 5.13 | 5.13 | 1 of 9 (4.29) |
| MSSKSYLYESRNKNSVA | WASTRES | QQYHRLPLS | 2.17 / 2.21 / 2.25 | 2.21 | 3 of 9 (3.00) |
| KSSQSVLYEGRNKNSVA | WASTRES | QQYHRLPLS | 0.76 / 0.93 / 0.98 | 0.89 | 5 of 9 (4.07) |
| MSRQSVLYESRNKNSVA | WASTRES | QQYHRLPLC | ND / ND / ND | ND | 1 of 9 (3.39) |
| KSSQSVLYESRNKNYVA | WASTRES | QQYHRLMLS | ND / ND / ND | ND | 2 of 9 (4.18) |
| KASQSVLYESRGKNSVA | WASTRES | QQYHRLPLD | ND / ND / ND | ND | 0 of 9 |
| KSSASVQYESRNKNSVE | WASTRES | QQYHRLPLS | ND / ND / ND | ND | 0 of 9 |
| KASQSVLYNWRNKNSVA | WASTRES | QQYHRLPLS | 2.67 / 2.50 / 2.61 | 2.60 | 0 of 9 |
| KSSQLVLYESRNKNSVA | WASTRES | QQYHELPLS | 2.54 / 2.15 / 2.54 | 2.41 | 0 of 9 |
| KSSQWVLYESRNKNSVA | WASTRES | QQYHRLPQC | 2.01 / 2.05 / 2.48 | 2.18 | 0 of 9 |
| KRSQSVLYESRNKNSVA | WASTRES | QQYHRLPLS | 1.91 / 2.11 / 2.01 | 2.01 | 2 of 9 (4.31) |
| KSSQSVLYEPWNKNSVA | WASTRES | QQYHRNPLS | 5.59 / ND / ND | 5.59 | 1 of 9 (4.08) |
| KLSQSVLYESRNKNSVA | WASDRES | QQYHRWPLS | ND / ND / ND | ND | 0 of 9 |
| KSPQSVEYESRNKNSVA | WASTRES | QQYHRLPLS | 1.29 / 1.05 / 0.97 | 1.10 | 0 of 9 |
| KSSQWVLYESRNKNSVA | WASTRES | QQYTRLPLD | ND / ND / ND | ND | 5 of 9 (4.01) |
| KSYQSVLYESRNKNSVA | WASTRES | QFYHRLPLT | ND / ND / ND | ND | 0 of 9 |
| KSSQSVLYESRLKNSVA | WASTRES | QQYHRLPLH | ND / ND / ND | ND | 0 of 9 |

The last 4 entries again:

CDR-L1	CDR-L2	CDR-L3	log10 Kd, replicates	log10 Kd (nM), mean	signal with controls
KSPQSVEYESRNKNSVA	WASTRES	QQYHRLPLS	1.29 / 1.05 / 0.97	1.10	0 of 9
KSSQWVLYESRNKNSVA	WASTRES	QQYTRLPLD	ND / ND / ND	ND	5 of 9 (4.01)
KSYQSVLYESRNKNSVA	WASTRES	QFYHRLPLT	ND / ND / ND	ND	0 of 9
KSSQSVLYESRLKNSVA	WASTRES	QQYHRLPLH	ND / ND / ND	ND	0 of 9